In publication PMC3909101, “Chemical Rescue and Inhibition Studies to Determine the Role of Arg301 in Phosphite Dehydrogenase” (PLoS ONE, 2014):
Only a part of the results on these compounds is given; other tests are left out.

The chains behind the UniProt entries cited, without tags or fusion partners. Residues count along the entry.
UniProt O69054, 1-329 D13E/M26I/V71I/E130K/Q132R/Q137R/I150F/R301A limits assumed: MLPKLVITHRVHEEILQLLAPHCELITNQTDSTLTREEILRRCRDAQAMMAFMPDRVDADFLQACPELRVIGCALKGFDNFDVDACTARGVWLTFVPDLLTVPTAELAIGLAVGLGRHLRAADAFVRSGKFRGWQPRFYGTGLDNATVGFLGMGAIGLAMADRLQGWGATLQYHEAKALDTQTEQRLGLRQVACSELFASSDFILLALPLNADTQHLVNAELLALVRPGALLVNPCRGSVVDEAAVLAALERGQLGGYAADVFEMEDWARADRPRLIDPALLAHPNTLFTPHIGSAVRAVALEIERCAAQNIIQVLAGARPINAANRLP

Biological target: 17X-PTDH-R301A (Stutzerimonas stutzeri (Pseudomonas stutzeri), UniProt O69054, D13E/E130K/I150F/M26I/Q132R/Q137R/R301A/V71I, form not given)
Assay: Chemical rescue experiments with 17X-PTDH-R301A
Type: biochemical, Pseudomonas stutzeri WM88
Conditions: exogenous reagent; unsuccessful ones tested at 20–100 mM depending on solubility

N=C(N)N[N+](=O)[O-]
Rescue of activity of the R301A mutant: not observed
